This note sets out measurements from US20170028013A1, “COMBINATION FORMULATION OF LAQUINIMOD AND GLATIRAMER ACETATE WITH AMINO ACIDS” (Teva Pharmaceutical Industries, Ltd., priority 2015, published 2017).

The nature of series [1]: pH optimum for stability and solubility. The class given is physicochemical. From the text: Developing formulations containing laquinimod and GA is particularly difficult because laquinimod and GA have different pH optimums in terms of stability and solubility and because of undesired effects, mainly gelation or the formation of turbid formulations in the presence of various buffers, solvents and surface active agents.

Series [2] in a line: Visual clarity / turbidity of GA-laquinimod formulations. Format: physicochemical. The conditions noted are these: GA 5-6 mg/mL; phosphate, acetate, hydrocarbonate buffers pH 5.5-8; 5° C. and 25° C./60% RH. How it is done:
As used herein, a “clear” solution, formulation or form is a solution, formulation or form which appears clear or transparent by visible inspection.
In addition, for the characterization of the best scaled-up formulation comprising GA LAQ (1.1 mg/mL), L-lysine (1.4 mg/mL) and mannitol (43 mg/mL) as a tonicity agent, HPLC-SEC (size-exclusion chromatography) was used to evaluate the GA assay and molecular-weight distribution, while HPLC was used for LAQ assay. Clarity was evaluated using a 2100 AN turbidimeter. Functional tests for the drug product filled in pre-filled syringes were performed to evaluate Breakout and Gliding forces.

In the case of “L-glutamic acid polymer with L-alanine, L-lysine and L-tyrosine, acetate (salt) [Glatiramer acetate]”, the “pH required to limit degradation” value in series [1] was not above 7.0. For the same substance, the “Turbidity of GA solutions in buffers” value in series [2] is “cause turbidity”.
